Laboratory results as given in ChEMBL document CHEMBL5150054, “Pyrazole-containing pharmaceuticals: target, pharmacological activity, and their SAR studies” (RSC Med Chem, 2022).

Sequences of proteins named here, by UniProt entry; tags and fusion partners are left off.
UniProt P27487, whole entry: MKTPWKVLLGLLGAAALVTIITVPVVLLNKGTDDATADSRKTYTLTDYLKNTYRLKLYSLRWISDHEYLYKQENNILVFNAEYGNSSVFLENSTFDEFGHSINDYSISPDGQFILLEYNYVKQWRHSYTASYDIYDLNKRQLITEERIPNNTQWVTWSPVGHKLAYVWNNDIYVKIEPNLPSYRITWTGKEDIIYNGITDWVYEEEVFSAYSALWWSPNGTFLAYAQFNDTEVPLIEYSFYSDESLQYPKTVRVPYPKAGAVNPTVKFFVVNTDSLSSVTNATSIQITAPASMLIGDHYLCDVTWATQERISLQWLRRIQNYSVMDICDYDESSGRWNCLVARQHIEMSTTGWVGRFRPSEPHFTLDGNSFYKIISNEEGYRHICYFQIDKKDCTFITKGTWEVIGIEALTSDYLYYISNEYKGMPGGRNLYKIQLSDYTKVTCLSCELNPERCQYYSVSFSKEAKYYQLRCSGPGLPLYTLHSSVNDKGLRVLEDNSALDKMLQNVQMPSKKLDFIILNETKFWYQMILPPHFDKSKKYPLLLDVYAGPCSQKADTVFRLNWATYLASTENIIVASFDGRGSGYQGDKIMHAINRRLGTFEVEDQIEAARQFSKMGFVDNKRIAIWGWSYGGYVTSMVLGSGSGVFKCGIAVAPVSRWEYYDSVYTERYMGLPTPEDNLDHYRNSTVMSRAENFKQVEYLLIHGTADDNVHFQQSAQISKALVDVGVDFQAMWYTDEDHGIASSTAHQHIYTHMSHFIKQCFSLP

Target: Dipeptidyl peptidase 4 (Homo sapiens, UniProt P27487)

## Cc1cc2ncc(C(=O)NCC(C)(C)NCC(=O)N3CCC[C@H]3C#N)cn2n1 [ANAGLIPTIN]
  IC50: 3.3 nM
